Four molecules from ChEMBL document CHEMBL4000227, “Structure activity relationships of benzylproline-derived inhibitors of the glutamine transporter ASCT2” (Bioorg Med Chem Lett, 2017) can be followed below.

Molecules are shown by their SMILES.

For the experiment, the target named is T1, Amino acid transporter (Rattus norvegicus, UniProt Q9Z1J7).
T1 sequence (Q9Z1J7 whole entry): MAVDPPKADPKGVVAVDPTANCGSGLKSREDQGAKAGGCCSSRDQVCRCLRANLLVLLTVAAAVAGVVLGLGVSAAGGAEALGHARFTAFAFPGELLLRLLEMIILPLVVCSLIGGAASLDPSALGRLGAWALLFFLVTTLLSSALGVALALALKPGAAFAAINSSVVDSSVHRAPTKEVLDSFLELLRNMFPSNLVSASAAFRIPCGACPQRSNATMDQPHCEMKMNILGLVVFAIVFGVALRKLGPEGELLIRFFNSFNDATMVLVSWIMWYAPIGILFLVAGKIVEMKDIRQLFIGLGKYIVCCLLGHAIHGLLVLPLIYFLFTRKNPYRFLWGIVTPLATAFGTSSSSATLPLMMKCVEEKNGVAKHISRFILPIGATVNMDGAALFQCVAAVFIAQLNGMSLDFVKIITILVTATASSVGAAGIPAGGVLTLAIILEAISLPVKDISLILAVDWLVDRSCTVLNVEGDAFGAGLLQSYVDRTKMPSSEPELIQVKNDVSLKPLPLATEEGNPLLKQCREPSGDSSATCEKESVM
Briefly: Inhibition of rat ASCT2 expressed in HEK293 cells assessed as inhibition of L-alanine/Na+ exchange by measuring reduction in SCN anion inward current in presence of NaCl and NaSCN by whole cell patch-clamp method. Type of experiment: cell-based. Conditions: read-out: Ki(app). Summed up: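 Whole-cell currents from HEK293T cells transiently expressing rat ASCT2, held at 0 mV; bath 140 mM NaCl, pipette 135 mM NaSCN plus 10 mM alanine. Outward currents recorded over a range of compound concentrations, normalized to the response at 1 mM, and fitted as dose-response relationships to obtain apparent affinity.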
On to `O=C(O)C1C[C@@H](Cc2ccccc2Br)CN1` (single isomer, unassigned), for which the Ki was found to be 25 µM.
For `O=C(O)C1C[C@@H](Cc2ccc(C(F)(F)F)cc2)CN1` (single isomer, unassigned), the Ki turned out to be 360 µM.
Consider `O=C(O)C1C[C@@H](Cc2ccccc2[N+](=O)[O-])CN1` (single isomer, unassigned), for which the Ki amounted to 373 µM.
Consider `O=C(O)C1C[C@@H](Cc2cccc(C(F)(F)F)c2)CN1` (single isomer, unassigned), for which the Ki worked out at 77 µM.
